Patent publication US8394821B2, “Activated blood coagulation factor inhibitor” (Daiichi Sankyo Company, Limited, priority 2009, dated 2013)

Experiments:
[1] = Moisture absorption and desorption characteristics (microbalance, water vapor adsorption apparatus); assay type: physicochemical; conditions: 25° C., 40% to 60% RH
Description: Various samples prepared in Example 1 were separately placed in quartz holders and measured for their moisture absorption and desorption behavior under the following conditions using a microbalance.
Moisture absorption and desorption behavior measurement conditions (sample volume: approximately 20 mg, measurement range: 10-90% RH, measurement temperature: 25° C., variable: within 0.03%, varying length of time: 10 min., apparatus: VTI atmospheric pressure-type automatic water vapor adsorption apparatus SGA-100)

[2] = Evaluation of solubility (37° C., 30 min, HPLC); assay type: physicochemical
Description: A supersaturated amount of each sample was placed in a 12-mL test tube, and 3 mL of a test solution (water, Japanese Pharmacopoeia disintegration test solution No. 1 (JP1), and Japanese Pharmacopoeia disintegration test solution No. 2 (JP2)) was added thereto. The test tube was incubated in a constant-temperature water bath at 37° C. The test tube was shaken using a vortex mixer for 30 seconds every 5 minutes. 30 minutes later, the supernatant was filtered through a membrane filter (pore size: 0.45 μm), appropriately diluted with eluent, and then analyzed by HPLC under the following conditions. The concentration was calculated from a calibration curve prepared before measurement.
Measurement conditions of HPLC (column: Waters Symmetry C18 4.6 mm×150 mm, eluent: 0.05 M phosphate buffer (pH 5.0): acetonitrile=70:30, flow rate: 1 mL/min., detection: UV 220 nm, column temperature: 40° C.)

## CN1CCc2nc(C(=O)N[C@@H]3C[C@@H](C(=O)N(C)C)CC[C@@H]3NC(=O)C(=O)Nc3ccc(Cl)cn3)sc2C1.O.O=C(O)C(O)C(O)C(=O)O [compound II, N^1-(5-chloropyridin-2-yl)-N^2-((1S,2R,4S)-4-[(dimethylamino)carbonyl]-2-{[(5-methyl-4,5,6,7-tetrahydrothiazolo[5,4-c]pyridin-2-yl)carbonyl]amino}cyclohexyl)ethanediamide(+)-tartrate monohydrate]
[1]
  weight change at 40% to 60% relative humidity: ≤ 1%
[2]; Japanese Pharmacopoeia disintegration test solution No. 1, 37° C., 30 minutes
  JP1 (Solubility (μg/mL)): >2000 µg/mL
[2]; Japanese Pharmacopoeia disintegration test solution No. 2, 37° C., 30 minutes
  JP2 (Solubility (μg/mL)): 138 µg/mL
[2]; crystals, compared with compound A
  solubility in water (in words): highly soluble in water compared with compound A
[2]; water, 37° C., 30 minutes
  Water (Solubility (μg/mL)): >2000 µg/mL
